Test results published in PubChem BioAssay (EPA / NIEHS).
Only a part is listed here, and it is no random draw. Calls of active or inactive are those of the source. Rule for the calls: active = hit-call score of the fitted dose curve at least 0.9, where 1 is the maximum; inactive = score below 0.9.

Amino acid sequences for entries named in this document (tags omitted).
UniProt P08684, whole entry: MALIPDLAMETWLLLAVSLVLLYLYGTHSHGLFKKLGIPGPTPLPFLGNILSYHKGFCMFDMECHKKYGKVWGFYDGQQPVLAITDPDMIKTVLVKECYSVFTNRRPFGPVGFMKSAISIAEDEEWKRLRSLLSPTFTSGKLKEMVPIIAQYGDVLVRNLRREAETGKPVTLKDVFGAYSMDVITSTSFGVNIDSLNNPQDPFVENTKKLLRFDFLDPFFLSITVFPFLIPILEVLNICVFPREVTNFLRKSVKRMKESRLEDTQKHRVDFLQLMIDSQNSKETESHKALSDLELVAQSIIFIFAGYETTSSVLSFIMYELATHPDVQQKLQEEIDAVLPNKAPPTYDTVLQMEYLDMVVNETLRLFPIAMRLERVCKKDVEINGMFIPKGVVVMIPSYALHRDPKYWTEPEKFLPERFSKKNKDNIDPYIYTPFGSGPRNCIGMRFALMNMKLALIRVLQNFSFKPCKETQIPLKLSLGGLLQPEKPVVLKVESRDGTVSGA
UniProt P24462, whole entry: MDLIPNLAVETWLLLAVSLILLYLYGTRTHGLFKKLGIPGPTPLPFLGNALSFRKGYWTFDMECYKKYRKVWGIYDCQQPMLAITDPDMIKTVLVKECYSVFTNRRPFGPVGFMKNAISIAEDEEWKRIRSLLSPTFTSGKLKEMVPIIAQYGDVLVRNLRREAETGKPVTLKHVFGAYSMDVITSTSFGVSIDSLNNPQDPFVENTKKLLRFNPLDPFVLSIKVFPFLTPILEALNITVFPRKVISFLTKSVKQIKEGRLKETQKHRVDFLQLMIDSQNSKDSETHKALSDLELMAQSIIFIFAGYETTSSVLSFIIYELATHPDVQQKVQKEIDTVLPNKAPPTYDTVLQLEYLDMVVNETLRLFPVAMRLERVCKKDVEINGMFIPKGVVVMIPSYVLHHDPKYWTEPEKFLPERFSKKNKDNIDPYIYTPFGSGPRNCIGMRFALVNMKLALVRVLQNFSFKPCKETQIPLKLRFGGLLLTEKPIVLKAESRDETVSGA
UniProt Q16665, whole entry: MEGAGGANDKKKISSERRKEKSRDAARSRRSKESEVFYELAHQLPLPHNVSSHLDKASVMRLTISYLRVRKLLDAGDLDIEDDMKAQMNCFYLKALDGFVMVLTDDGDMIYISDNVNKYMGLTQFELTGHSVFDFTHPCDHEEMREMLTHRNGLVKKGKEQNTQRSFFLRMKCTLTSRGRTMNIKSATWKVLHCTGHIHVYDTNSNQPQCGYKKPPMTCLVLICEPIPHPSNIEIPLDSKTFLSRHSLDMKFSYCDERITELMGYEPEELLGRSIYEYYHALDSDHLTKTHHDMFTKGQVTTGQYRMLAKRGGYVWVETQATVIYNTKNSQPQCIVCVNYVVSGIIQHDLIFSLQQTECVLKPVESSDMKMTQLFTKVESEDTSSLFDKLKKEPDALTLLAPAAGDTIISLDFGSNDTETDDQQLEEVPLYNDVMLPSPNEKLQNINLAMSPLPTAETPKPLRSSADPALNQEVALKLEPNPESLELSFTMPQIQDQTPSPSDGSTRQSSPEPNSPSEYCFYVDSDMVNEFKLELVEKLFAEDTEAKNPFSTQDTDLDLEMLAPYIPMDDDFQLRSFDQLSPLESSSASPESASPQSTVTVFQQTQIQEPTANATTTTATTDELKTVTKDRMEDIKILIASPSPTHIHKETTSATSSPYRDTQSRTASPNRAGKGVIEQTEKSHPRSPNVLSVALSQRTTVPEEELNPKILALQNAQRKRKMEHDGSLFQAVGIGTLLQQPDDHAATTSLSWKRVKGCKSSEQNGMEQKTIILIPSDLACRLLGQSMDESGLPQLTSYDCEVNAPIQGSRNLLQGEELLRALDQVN

Columns and labels:
Settings in all cases: actives raise or lower the signal; mRNA level, 48 h
[1] = read-out: CYP2E1 (gene 1571); assay: LTEA_HepaRG_CYP2E1: Life Technologies and Expression Analysis (LTEA) Assay for CYP2E1 using HepaRG (AID 2283485)
Summary of the method: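 CYP2E1 transcript was measured by TaqMan qRT-PCR in human HepaRG cultures after 48 h chemical exposure (top 100 uM, half-log steps, 0.5% DMSO vehicle). Housekeeping-gene normalization; gain or loss fitted relative to DMSO baseline.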

[2] = read-out: CYP4A11 (gene 1579); assay: LTEA_HepaRG_CYP4A11: Life Technologies and Expression Analysis (LTEA) Assay for CYP4A11 using HepaRG (AID 2283486)
Summary of the method: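 Readout is CYP4A11 transcript level by qRT-PCR, normalized to three housekeeping genes and fitted bidirectionally against 0.5% DMSO. Human HepaRG cells were treated 48 h, in duplicate, with an 8-point half-log series topping at 100 uM.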

[3] = read-out: Cytochrome P450 3A4 (Homo sapiens) (UniProt P08684); assay: LTEA_HepaRG_CYP3A4: Life Technologies and Expression Analysis (LTEA) Assay for CYP3A4 using HepaRG (AID 2283487)
Summary of the method: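 Differentiated HepaRG cells, plated 48 h, then dosed 48 h in serum-free induction medium with 0.5% DMSO, 8 half-log concentrations up to 100 uM, duplicate. CYP3A4 mRNA by qRT-PCR, normalized to ACTB/GAPDH/POLR2A; bidirectional fit versus DMSO.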

[4] = read-out: DNA damage-inducible transcript 3 (DDIT3), DDIT3 (gene 1649); assay: LTEA_HepaRG_DDIT3: Life Technologies and Expression Analysis (LTEA) Assay for DNA damage-inducible transcript 3 (DDIT3) using HepaRG (AID 2283488)
Summary of the method: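 qRT-PCR readout (Fluidigm TaqMan), housekeeping-normalized to ACTB, GAPDH, POLR2A. HepaRG cells, 48 h exposure, 8-point half-log series from 100 uM in 0.5% DMSO, duplicates. Gain or loss of signal fitted against DMSO baseline.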

[5] = read-out: Pro-epidermal growth factor (Homo sapiens) (UniProt P01133); assay: LTEA_HepaRG_EGF: Life Technologies and Expression Analysis (LTEA) Assay for Epidermal growth factor (EGF) using HepaRG (AID 2283489)
Summary of the method: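 EGF transcript measured by Fluidigm TaqMan qRT-PCR with three housekeeping genes for normalization, 48 h after dosing HepaRG cultures in duplicate (top 100 uM, half-log steps, 0.5% DMSO vehicle). Gain or loss relative to DMSO fitted.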

[6] = read-out: Early growth response protein 1 (EGR1) transcription factor, EGR1 (gene 1958); assay: LTEA_HepaRG_EGR1: Life Technologies and Expression Analysis (LTEA) Assay for Early growth response protein 1 (EGR1) transcription factor using HepaRG (AID 2283490)
Summary of the method: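 EGR1 expression change in human HepaRG after 48 h chemical exposure, assessed by housekeeping-normalized qRT-PCR; concentration-response up to 100 uM, fitted in both directions against DMSO controls.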

[7] = read-out: Ezrin (EZR), EZR (gene 7430); assay: LTEA_HepaRG_EZR: Life Technologies and Expression Analysis (LTEA) Assay for Ezrin (EZR) using HepaRG (AID 2283491)
Summary of the method: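 EZR transcript levels came from Fluidigm qRT-PCR and were normalized to three housekeeping genes after 48 h chemical exposure of HepaRG cells. Dosing used an 8-point half-log series with a 100 uM top concentration in 0.5% DMSO, tested in duplicate; both directions were fitted versus vehicle.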

[8] = read-out: Cytochrome P450 3A7 (Homo sapiens) (UniProt P24462); assay: LTEA_HepaRG_CYP3A7: Life Technologies and Expression Analysis (LTEA) Assay for CYP3A7 using HepaRG (AID 2283492)
Summary of the method: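 CYP3A7 transcript measured by qRT-PCR (ACTB, GAPDH, POLR2A normalization) after 48 h chemical exposure of HepaRG cells in duplicate. Eight half-log concentrations, maximum 100 uM, 0.5% DMSO vehicle; bidirectional curve fitting against DMSO baseline.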

[9] = read-out: CYP3A5 (gene 1577); assay: LTEA_HepaRG_CYP3A5: Life Technologies and Expression Analysis (LTEA) Assay for CYP3A5 using HepaRG (AID 2283493)
Summary of the method: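 qRT-PCR read-out: CYP3A5 transcript in HepaRG lysates, housekeeping-normalized (ACTB/GAPDH/POLR2A), fitted bidirectionally against 0.5% DMSO baseline. Exposure 48 h, eight half-log concentrations up to 100 uM, duplicates.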

[10] = read-out: Fatty Acid-Binding Protein 1 (FABP1), FABP1 (gene 2168); assay: LTEA_HepaRG_FABP1: Life Technologies and Expression Analysis (LTEA) Assay for Fatty Acid-Binding Protein 1 (FABP1) using HepaRG (AID 2283494)
Summary of the method: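 Values reflect bidirectional concentration-response fitting of FABP1 mRNA change against 0.5% DMSO controls. Human HepaRG cultures received eight half-log doses (top 100 uM) for 48 h; expression quantified by TaqMan qRT-PCR with housekeeping-gene normalization.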

[11] = read-out: Cytochrome P450 4A22 (Homo sapiens) (UniProt Q5TCH4); assay: LTEA_HepaRG_CYP4A22: Life Technologies and Expression Analysis (LTEA) Assay for Cytochrome P450 4A22 (CYP4A22) using HepaRG (AID 2283495)
Summary of the method: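 Gene expression measured by qRT-PCR against three housekeeping genes (ACTB, GAPDH, POLR2A), with gain or loss fitted relative to 0.5% DMSO vehicle. HepaRG cultures received 48 h chemical treatment, top concentration 100 uM, half-log steps, duplicate wells.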

[12] = read-out: Cytochrome P450 7A1 (Homo sapiens) (UniProt P22680); assay: LTEA_HepaRG_CYP7A1: Life Technologies and Expression Analysis (LTEA) Assay for Cytochrome P450 7A1 (CYP7A1) using HepaRG (AID 2283496)
Summary of the method: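 Using 0.5% DMSO as vehicle and baseline, chemicals were tested in duplicate over an 8-point range from 100 uM on HepaRG cells for 48 h; qRT-PCR signals were normalised to ACTB, GAPDH and POLR2A.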

[13] = read-out: Glutathione S-Transferase (GSTA2), GSTA2 (gene 2939); assay: LTEA_HepaRG_GSTA2: Life Technologies and Expression Analysis (LTEA) Assay for Glutathione S-Transferase (GSTA2) using HepaRG (AID 2283497)
Summary of the method: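 Oxidative-stress marker GSTA2 is quantified by TaqMan qRT-PCR in HepaRG cultures treated 48 h across an eight-point range to 100 uM. Expression is normalized to endogenous controls and compared with 0.5% DMSO vehicle.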

[14] = read-out: Glutamate-cysteine ligase catalytic (GCLC), GCLC (gene 2729); assay: LTEA_HepaRG_GCLC: Life Technologies and Expression Analysis (LTEA) Assay for Glutamate-cysteine ligase catalytic (GCLC) using HepaRG (AID 2283498)
Summary of the method: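 Oxidative-stress marker GCLC is measured as mRNA change in human HepaRG liver cells after 48 h chemical treatment in 0.5% DMSO, eight concentrations from 100 uM. Activity is fitted bidirectionally against vehicle.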

[15] = read-out: growth arrest and DNA damage 45 (GADD45G), GADD45G (gene 10912); assay: LTEA_HepaRG_GADD45G: Life Technologies and Expression Analysis (LTEA) Assay for growth arrest and DNA damage 45 (GADD45G) using HepaRG (AID 2283499)
Summary of the method: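 GADD45G transcript level by qRT-PCR (housekeeping-normalized: ACTB, GAPDH, POLR2A) after 48 h chemical treatment of a single HepaRG lot in serum-free induction medium; eight-point half-log series up to 100 uM in 0.5% DMSO, duplicates, up- or down-regulation scored.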

[16] = read-out: Glutamate-cysteine ligase regulatory (GCLM), GCLM (gene 2730); assay: LTEA_HepaRG_GCLM: Life Technologies and Expression Analysis (LTEA) Assay for Glutamate-cysteine ligase regulatory (GCLM) using HepaRG (AID 2283500)
Summary of the method: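 HepaRG, 48 h dosing, 100 uM top, half-log x8, 0.5% DMSO vehicle. Readout: GCLM mRNA by TaqMan qRT-PCR, housekeeping-normalized (ACTB/GAPDH/POLR2A). Curves fit bidirectionally vs DMSO baseline.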

[17] = read-out: Glutathione S-transferase M3 (GSTM3), GSTM3 (gene 2947); assay: LTEA_HepaRG_GSTM3: Life Technologies and Expression Analysis (LTEA) Assay for Glutathione S-transferase M3 (GSTM3) using HepaRG (AID 2283501)
Summary of the method: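 GSTM3 transcript levels came from Fluidigm TaqMan qRT-PCR normalized to three housekeeping genes, fitted in both directions against DMSO. HepaRG cultures received chemicals for 48 h in serum-free induction medium (0.5% DMSO), 8 half-log concentrations up to 100 uM, duplicate.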

[18] = read-out: Heat shock 70 kDa protein 1 (HSPA1A), gene 3303; assay: LTEA_HepaRG_HSPA1A: Life Technologies and Expression Analysis (LTEA) Assay for Heat shock 70 kDa protein 1 (HSPA1A) using HepaRG (AID 2283502)
Summary of the method: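 HepaRG, 48 h exposure, 8-pt half-log CRC from 100 uM in 0.5% DMSO, duplicates. Readout: TaqMan qRT-PCR of HSPA1A mRNA, housekeeping-normalized (ACTB/GAPDH/POLR2A). Bidirectional fit vs 0.5% DMSO baseline.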

[19] = read-out: Hypoxia-inducible factor 1-alpha (Homo sapiens) (UniProt Q16665); assay: LTEA_HepaRG_HIF1A: Life Technologies and Expression Analysis (LTEA) Assay for Hypoxia-inducible factor 1 (HIF1A) Trancription factor using HepaRG (AID 2283503)
Summary of the method: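 Gain- or loss-of-signal HIF1A mRNA changes are fitted against a DMSO baseline. HepaRG cultures receive eight concentrations, highest 100 uM, for 48 h in serum-free induction medium with 0.5% DMSO.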

[20] = read-out: 3-Hydroxy-3-Methylglutaryl-CoA Synthase 2 (HMGCS2), HMGCS2 (gene 3158); assay: LTEA_HepaRG_HMGCS2: Life Technologies and Expression Analysis (LTEA) Assay for 3-Hydroxy-3-Methylglutaryl-CoA Synthase 2 (HMGCS2) using HepaRG (AID 2283504)
Summary of the method: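 Readout is HMGCS2 transcript by qRT-PCR, housekeeping-normalised (ACTB/GAPDH/POLR2A) and fitted bidirectionally against 0.5% DMSO. Differentiated HepaRG cells received chemicals 48 h, duplicate wells, eight half-log concentrations topping at 100 uM.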

Measured: outcome

O=[N+]([O-])c1ccccc1[N+](=O)[O-]
inactive: all assays above
